Like-named read-outs stand apart in the source and are kept apart here.

Sequences of proteins named here, by UniProt entry; tags and fusion partners are left off. Residues count along the entry.
UniProt P43220, 24-463: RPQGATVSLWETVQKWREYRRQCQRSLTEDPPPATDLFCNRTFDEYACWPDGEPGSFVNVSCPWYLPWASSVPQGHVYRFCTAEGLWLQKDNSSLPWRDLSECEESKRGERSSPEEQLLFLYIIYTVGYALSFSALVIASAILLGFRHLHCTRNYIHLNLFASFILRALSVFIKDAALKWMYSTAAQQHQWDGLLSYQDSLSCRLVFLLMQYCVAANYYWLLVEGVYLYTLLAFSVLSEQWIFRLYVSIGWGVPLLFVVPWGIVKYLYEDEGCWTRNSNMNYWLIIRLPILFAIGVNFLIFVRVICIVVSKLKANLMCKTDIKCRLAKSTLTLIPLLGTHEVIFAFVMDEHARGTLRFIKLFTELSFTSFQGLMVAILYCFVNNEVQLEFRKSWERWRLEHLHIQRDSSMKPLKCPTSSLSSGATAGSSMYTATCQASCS

One data set concerns the target T1, human GLP-1 receptor (Homo sapiens, UniProt P43220).
T1 construct: expressed in transfected cells; host or cells: HEK-293
In words: cAMP response of HEK-293 cells stably expressing human GLP-1 receptor (HTRF). It is filed as cell-based. The protocol:
For preparation, cells were split into T175 culture flasks and grown overnight to near confluency in medium (DMEM/10% FBS). Medium was then removed and cells washed with PBS lacking calcium and magnesium, followed by proteinase treatment with accutase (Sigma-Aldrich cat. no. A6964). Detached cells were washed and resuspended in assay buffer (1×HBSS; 20 mM HEPES, 0.1% BSA, 2 mM IBMX) and cellular density determined. They were then diluted to 400000 cells/ml and 25 μl-aliquots dispensed into the wells of 96-well plates. For measurement, 25 μl of test compound in assay buffer was added to the wells, followed by incubation for 30 minutes at room temperature. […] Potencies of peptidic compounds at the GLP-1, glucagon and GIP receptors were determined by exposing cells expressing human glucagon receptor (hGlucagon R), human GIP receptor (hGIP-R) or human GLP-1 receptor (hGLP-1R) to the listed compounds at increasing concentrations and measuring the formed cAMP as described in Methods.
A general note: TR-FRET usually uses a lanthanide donor and a delayed reading to cut background.

Data set [1] is described as follows: Solubility testing in buffer (HPLC-UV). It is filed as physicochemical. The following applies: target concentration 10 mg/ml. The protocol:
Prior to the testing of solubility and stability of a peptide batch, its purity (HPLC-UV) was determined. […] Therefore, solutions from solid samples were prepared in different buffer systems with a concentration of 10 mg/mL compound based on the previously determined % purity. HPLC-UV was performed after 2 h of gentle agitation from the supernatant, which was obtained by 20 min of centrifugation at 4500 rpm. […] This analysis also served as starting point (t0) for the stability testing.

A short description of data set [2]: Stability testing in solution, 7 days at 40° C. (HPLC-UV). It is filed as physicochemical. The protocol:
After that time course, the sample was centrifuged for 20 min at 4500 rpm and 0.2 μL of the supernatant were analysed with HPLC-UV.
For determination of the amount of the remaining peptide, the peak areas of the target compound at t0 and t7 were compared, resulting in “% remaining peptide”, following the equation % remaining peptide=[(peak area peptide t7)×100]/peak area peptide t0.
The stability is expressed as “% remaining peptide”.

In turn, `CCCCCCCCCCCCCCCC(=O)N[C@@H](CCC(=O)N[C@@H](CCC(=O)NCCCC[C@H](NC(=O)[C@H](CCC(N)=O)NC(=O)[C@H](CCCCN)NC(=O)[C@H](CO)NC(=O)[C@H](CC(C)C)NC(=O)[C@H](CC(=O)O)NC(=O)[C@H](CO)NC(=O)[C@@H](NC(=O)[C@H](Cc1ccccc1)NC(=O)[C@@H](NC(=O)CNC(=O)[C@H](CCC(N)=O)NC(=O)[C@@H](CO)NC(=O)[C@@H](N)Cc1c[nH]cn1)[C@@H](C)O)[C@@H](C)O)C(=O)N[C@@H](CC(=O)O)C(=O)N[C@@H](CCC(=O)O)C(=O)N[C@@H](CCC(=O)O)C(=O)N[C@@H](C)C(=O)N[C@@H](C)C(=O)N[C@@H](CCCNC(=N)N)C(=O)N[C@@H](CC(C)C)C(=O)N[C@@H](Cc1ccccc1)C(=O)N[C@H](C(=O)N[C@@H](CCC(=O)O)C(=O)N[C@@H](Cc1c[nH]c2ccccc12)C(=O)N[C@@H](CC(C)C)C(=O)NC(C)(C)C(=O)N[C@@H](CCCCN)C(=O)NCC(=O)NCC(=O)N1CCC[C@H]1C(=O)N[C@@H](CO)C(=O)N[C@@H](CO)C(=O)NCC(=O)N[C@@H](C)C(=O)N1CCC[C@H]1C(=O)N1CCC[C@H]1C(=O)N1CCC[C@H]1C(=O)N[C@@H](CO)C(N)=O)[C@@H](C)CC)C(=O)O)C(=O)O` [SEQ ID NO: 19, H-dSer-Q-G-T-F-T-S-D-L-S-K-Q-K(γE-γE-x53)-D-E-E-A-A-R-L-F-I-E-W-L-Aib-K-G-G-P-S-S-G-A-P-P-P-S-NH2] came in with an EC50 at human GLP-1 receptor of 2 pM. For the same molecule, the solubility at 2 h was above 8000 µg/mL in data set [1] (pH 4.5, read-out: solubility pH 4.5) and above 8000 µg/mL in data set [1] (pH 7.4, read-out: solubility pH 7.4). The “Stability pH 4.5” value in data set [2] (pH 4.5, 7 days at 40° C. in solution) is 96.0 % remaining peptide. Moreover, the “Stability pH 7.4” value in data set [2] (pH 7.4, 7 days at 40° C. in solution) is recorded as 96.0 % remaining peptide.

A word on the EC50: it is the concentration giving half of the maximal effect. Low values mean greater potency, high ones weaker potency. Usually solubility stands for the concentration that dissolves in the medium under given conditions.

For the origin of these results see patent publication US9758561B2 (priority 2014, dated 2017).
